# Results as given in patent US20090099157A1, “TETRAHYDRO-PYRAZOLO-PYRIDINE THIOETHER MODULATORS OF CATHEPSIN S” (priority 2007, published 2009).
# Protein sequences, listed by entry. Tags and fused reporters are not part of them. Residues count along the entry.
# UniProt P25774, 115-331: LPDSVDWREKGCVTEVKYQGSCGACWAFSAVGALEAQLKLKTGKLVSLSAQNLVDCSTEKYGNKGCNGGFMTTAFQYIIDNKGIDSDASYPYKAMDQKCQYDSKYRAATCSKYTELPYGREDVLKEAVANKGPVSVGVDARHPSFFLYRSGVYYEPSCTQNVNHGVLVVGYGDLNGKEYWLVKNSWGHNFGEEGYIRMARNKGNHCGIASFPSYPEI
# Molecular target: Recombinant human cathepsin S (CatS) (Homo sapiens, UniProt P25774)
# Test: biochemical
row,Compound,IC50 [nM]
1,"CS(=O)(=O)N1CCc2c(c(-c3ccc(C(F)(F)F)c(SCCN4CCCCC4)c3)nn2CC(O)CN2CCN(c3c(Cl)cncc3Cl)CC2)C1 (stereo not shown) [Example 866, 1-[4-(3,5-Dichloropyridin-4-yl)piperazin-1-yl]-3-[5-(methylsulfonyl)-3-{3-[(2-piperidin-1-ylethyl)sulfanyl]-4-(trifluoromethyl)phenyl}-4,5,6,7-tetrahydro-1H-pyrazolo[4,3-c]pyridin-1-yl]propan-2-ol]",20
2,"CS(=O)(=O)N1CCc2c(c(-c3ccc(C(F)(F)F)c(SCCN4CCC(F)CC4)c3)nn2CC(O)CN2CCCCC2)C1 (stereo not shown) [Example 188, 1-{3-[3-{[2-(4-Fluoropiperidin-1-yl)ethyl]sulfanyl}-4-(trifluoromethyl)phenyl]-5-(methylsulfonyl)-4,5,6,7-tetrahydro-1H-pyrazolo[4,3-c]pyridin-1-yl}-3-piperidin-1-ylpropan-2-ol]",150
3,"O=C(CSc1cc(-c2nn(CC(O)CN3CC4CCCC4C3)c3c2CNCC3)ccc1C(F)(F)F)N1CCCC1 (stereo not shown) [Example 299, 1-(Hexahydrocyclopenta[c]pyrrol-2(1H)-yl)-3-(3-{3-[(2-oxo-2-pyrrolidin-1-ylethyl)sulfanyl]-4-(trifluoromethyl)phenyl}-4,5,6,7-tetrahydro-1H-pyrazolo[4,3-c]pyridin-1-yl)propan-2-ol]",2110
4,"O=C(CSc1cc(-c2nn(CC(O)CN3Cc4ccccc4C3)c3c2CNCC3)ccc1C(F)(F)F)N1CCCC1 (stereo not shown) [Example 305, 1-(1,3-Dihydro-2H-isoindol-2-yl)-3-(3-{3-[(2-oxo-2-pyrrolidin-1-ylethyl)sulfanyl]-4-(trifluoromethyl)phenyl}-4,5,6,7-tetrahydro-1H-pyrazolo[4,3-c]pyridin-1-yl)propan-2-ol]",1560
5,"COc1ccc(C2CCN(C[C@H](O)Cn3nc(-c4ccc(C(F)(F)F)c(SCCN5CCC(F)CC5)c4)c4c3CCNC4)CC2)cc1 [Example 564, (2S)-1-{3-[3-{[2-(4-Fluoropiperidin-1-yl)ethyl]sulfanyl}-4-(trifluoromethyl)phenyl]-4,5,6,7-tetrahydro-1H-pyrazolo[4,3-c]pyridin-1-yl}-3-{4-[4-(methyloxy)phenyl]piperidin-1-yl}propan-2-ol]",230
6,"CC1C(=O)NCCN1CCSc1cc(-c2nn(CC(O)CN3CCC(C(=O)N4CCCC4)CC3)c3c2CN(S(C)(=O)=O)CC3)ccc1C(F)(F)F (stereo not shown) [Example 847, 4-[2-({5-[1-{2-Hydroxy-3-[4-(pyrrolidin-1-ylcarbonyl)piperidin-1-yl]propyl}-5-(methylsulfonyl)-4,5,6,7-tetrahydro-1H-pyrazolo[4,3-c]pyridin-3-yl]-2-(trifluoromethyl)phenyl}sulfanyl)ethyl]-3-methylpiperazin-2-one]",180
7,"CS(=O)(=O)N1CCc2c(c(-c3ccc(C(F)(F)F)c(SCCN4CCC(F)CC4)c3)nn2C[C@H](O)CN2CCN(c3ccccc3C#N)CC2)C1 [Example 827, 2-{4-[(2R)-3-{3-[3-{[2-(4-Fluoropiperidin-1-yl)ethyl]sulfanyl}-4-(trifluoromethyl)phenyl]-5-(methylsulfonyl)-4,5,6,7-tetrahydro-1H-pyrazolo[4,3-c]pyridin-1-yl}-2-hydroxypropyl]piperazin-1-yl}benzonitrile]",15
8,"O=C(Nc1ccccc1)N1CCc2c(c(-c3ccc(C(F)(F)F)c(SCCN4CCC(F)CC4)c3)nn2C[C@@H](O)CN2CCCCC2)C1 [Example 604, 3-[3-{[2-(4-Fluoropiperidin-1-yl)ethyl]sulfanyl}-4-(trifluoromethyl)phenyl]-1-[(2S)-2-hydroxy-3-piperidin-1-ylpropyl]-N-phenyl-1,4,6,7-tetrahydro-5H-pyrazolo[4,3-c]pyridine-5-carboxamide]",130
9,"CS(=O)(=O)N1CCc2c(c(-c3ccc(C(F)(F)F)c(SCC(=O)N4CCCC4)c3)nn2CC(O)CN2CCC(C(=O)N3CCCC3)CC2)C1 (stereo not shown) [Example 257, 1-[5-(Methylsulfonyl)-3-{3-[(2-oxo-2-pyrrolidin-1-ylethyl)sulfanyl]-4-(trifluoromethyl)phenyl}-4,5,6,7-tetrahydro-1H-pyrazolo[4,3-c]pyridin-1-yl]-3-[4-(pyrrolidin-1-ylcarbonyl)piperidin-1-yl]propan-2-ol]",30
10,"O=C(CSc1cc(-c2nn(CC(O)CN3CCCCC3)c3c2CN(C(=O)CO)CC3)ccc1C(F)(F)F)N1CCOCC1 (stereo not shown) [Example 273, 1-[5-(Hydroxyacetyl)-3-{3-[(2-morpholin-4-yl-2-oxoethyl)sulfanyl]-4-(trifluoromethyl)phenyl}-4,5,6,7-tetrahydro-1H-pyrazolo[4,3-c]pyridin-1-yl]-3-piperidin-1-ylpropan-2-ol]",190
11,"CC1CCN(CCSc2cc(-c3nn(C[C@@H](O)CN4CCC(N5C[C@@H](O)CC5=O)CC4)c4c3CN(S(C)(=O)=O)CC4)ccc2C(F)(F)F)CC1 [Example 812, (4S)-4-Hydroxy-1-{1-[(2S)-2-hydroxy-3-{3-[3-{[2-(4-methylpiperidin-1-yl)ethyl]sulfanyl}-4-(trifluoromethyl)phenyl]-5-(methylsulfonyl)-4,5,6,7-tetrahydro-1H-pyrazolo[4,3-c]pyridin-1-yl}propyl]piperidin-4-yl}pyrrolidin-2-one]",90
12,"CS(=O)(=O)N1CCc2c(c(-c3ccc(C(F)(F)F)c(SCCN4CCCC(F)C4)c3)nn2C[C@@H](O)CN2C=NCCC2)C1 (stereo partly drawn) [Example 395, (2S)-1-(5,6-Dihydropyrimidin-1(4H)-yl)-3-{3-[3-{[2-(3-fluoropiperidin-1-yl)ethyl]sulfanyl}-4-(trifluoromethyl)phenyl]-5-(methylsulfonyl)-4,5,6,7-tetrahydro-1H-pyrazolo[4,3-c]pyridin-1-yl}propan-2-ol]",1430
13,"CS(=O)(=O)N1CCc2c(c(-c3ccc(C(F)(F)F)c(SCCNCCc4c[nH]cn4)c3)nn2CCCN2CCC(N3CCCC3=O)CC2)C1 [Example 719, 1-(1-{3-[3-{3-[(2-{[2-(1H-Imidazol-4-yl)ethyl]amino}ethyl)sulfanyl]-4-(trifluoromethyl)phenyl}-5-(methylsulfonyl)-4,5,6,7-tetrahydro-1H-pyrazolo[4,3-c]pyridin-1-yl]propyl}piperidin-4-yl)pyrrolidin-2-one]",2340
14,"CS(=O)(=O)N1CCc2c(c(-c3ccc(C(F)(F)F)c(SCC(=O)N4CCCC4)c3)nn2CC(O)CN2CCC(c3ccccn3)CC2)C1 (stereo not shown) [Example 256, 1-[5-(Methylsulfonyl)-3-{3-[(2-oxo-2-pyrrolidin-1-ylethyl)sulfanyl]-4-(trifluoromethyl)phenyl}-4,5,6,7-tetrahydro-1H-pyrazolo[4,3-c]pyridin-1-yl]-3-(4-pyridin-2-ylpiperidin-1-yl)propan-2-ol]",2
15,"OC(CN1CCC(Oc2ncccn2)CC1)Cn1nc(-c2ccc(C(F)(F)F)c(SCCN3CCC(F)(F)C3)c2)c2c1CCNC2 (stereo not shown) [Example 519, 1-{3-[3-{[2-(3,3-Difluoropyrrolidin-1-yl)ethyl]sulfanyl}-4-(trifluoromethyl)phenyl]-4,5,6,7-tetrahydro-1H-pyrazolo[4,3-c]pyridin-1-yl}-3-[4-(pyrimidin-2-yloxy)piperidin-1-yl]propan-2-ol]",800
16,"CS(=O)(=O)N1CCc2c(c(-c3ccc(C(F)(F)F)c(SCCN4C=NCCC4)c3)nn2C[C@@H](O)CN2CCCCC2)C1 [Example 215, (2S)-1-{3-[3-{[2-(5,6-Dihydropyrimidin-1(4H)-yl)ethyl]sulfanyl}-4-(trifluoromethyl)phenyl]-5-(methylsulfonyl)-4,5,6,7-tetrahydro-1H-pyrazolo[4,3-c]pyridin-1-yl}-3-piperidin-1-ylpropan-2-ol]",1290
17,"Cc1noc(C2CCN(CC(O)Cn3nc(-c4ccc(C(F)(F)F)c(SCCN5CCOCC5)c4)c4c3CCN(S(C)(=O)=O)C4)CC2)n1 (stereo not shown) [Example 681, 1-[4-(3-Methyl-1,2,4-oxadiazol-5-yl)piperidin-1-yl]-3-[5-(methylsulfonyl)-3-{3-[(2-morpholin-4-ylethyl)sulfanyl]-4-(trifluoromethyl)phenyl}-4,5,6,7-tetrahydro-1H-pyrazolo[4,3-c]pyridin-1-yl]propan-2-ol]",80
18,"CC(=O)N1CCN(CCSc2cc(-c3nn(CC(O)CN4CCC(O)(c5ccccn5)CC4)c4c3CN(S(C)(=O)=O)CC4)ccc2C(F)(F)F)CC1 (stereo not shown) [Example 858, 1-(3-{3-[3-{[2-(4-Acetylpiperazin-1-yl)ethyl]sulfanyl}-4-(trifluoromethyl)phenyl]-5-(methylsulfonyl)-4,5,6,7-tetrahydro-1H-pyrazolo[4,3-c]pyridin-1-yl}-2-hydroxypropyl)-4-pyridin-2-ylpiperidin-4-ol]",230
19,"CN(C)C1CCN(C(=O)CSc2cc(-c3nn(CCCN4CCC(N5CCCC5=O)CC4)c4c3CN(S(C)(=O)=O)CC4)ccc2C(F)(F)F)C1 (stereo not shown) [Example 88, 1-{1-[3-(3-{3-[2-(3-Dimethylamino-pyrrolidin-1-yl)-2-oxo-ethylsulfanyl]-4-trifluoromethyl-phenyl}-5-methanesulfonyl-4,5,6,7-tetrahydro-pyrazolo[4,3-c]pyridin-1-yl)-propyl]-piperidin-4-yl}-pyrrolidin-2-one]",660
20,"CC1(O)CCN(CC(O)Cn2nc(-c3ccc(C(F)(F)F)c(SCCN4CCCC4)c3)c3c2CCN(S(C)(=O)=O)C3)CC1 (stereo not shown) [Example 386, 1-{2-Hydroxy-3-[5-(methylsulfonyl)-3-{3-[(2-pyrrolidin-1-ylethyl)sulfanyl]-4-(trifluoromethyl)phenyl}-4,5,6,7-tetrahydro-1H-pyrazolo[4,3-c]pyridin-1-yl]propyl}-4-methylpiperidin-4-ol]",1190
21,"CS(=O)(=O)N1CCc2c(c(-c3ccc(C(F)(F)F)c(SCCN4CCC(O)CC4)c3)nn2CC(O)CN2CCN(c3ccccc3C#N)CC2)C1 (stereo not shown) [Example 171, 2-[4-(2-Hydroxy-3-{3-[3-{[2-(4-hydroxypiperidin-1-yl)ethyl]sulfanyl}-4-(trifluoromethyl)phenyl]-5-(methylsulfonyl)-4,5,6,7-tetrahydro-1H-pyrazolo[4,3-c]pyridin-1-yl}propyl)piperazin-1-yl]benzonitrile]",20
22,"CN(C)c1ccc2c(n1)n(C1CCN(CCCn3nc(-c4ccc(C(F)(F)F)c(SCCO)c4)c4c3CCN(S(C)(=O)=O)C4)CC1)c(=O)n2C [Example 3, 5-Dimethylamino-3-[1-(3-{3-[3-(2-hydroxy-ethylsulfanyl)-4-trifluoromethyl-phenyl]-5-methanesulfonyl-4,5,6,7-tetrahydro-pyrazolo[4,3-c]pyridin-1-yl}-propyl)piperidin-4-yl]-1-methyl-1,3-dihydro-imidazo[4,5-b]pyridin-2-one]",40
